Assay results taken from patent publication US8575157B2, “Cyclic inhibitors of 11beta-hydroxysteroid dehydrogenase 1” (Vitae Pharmaceuticals, Inc., priority 2010, dated 2013).

By UniProt entry, the sequences of proteins in these tests, tags left out.
UniProt P11712, whole entry: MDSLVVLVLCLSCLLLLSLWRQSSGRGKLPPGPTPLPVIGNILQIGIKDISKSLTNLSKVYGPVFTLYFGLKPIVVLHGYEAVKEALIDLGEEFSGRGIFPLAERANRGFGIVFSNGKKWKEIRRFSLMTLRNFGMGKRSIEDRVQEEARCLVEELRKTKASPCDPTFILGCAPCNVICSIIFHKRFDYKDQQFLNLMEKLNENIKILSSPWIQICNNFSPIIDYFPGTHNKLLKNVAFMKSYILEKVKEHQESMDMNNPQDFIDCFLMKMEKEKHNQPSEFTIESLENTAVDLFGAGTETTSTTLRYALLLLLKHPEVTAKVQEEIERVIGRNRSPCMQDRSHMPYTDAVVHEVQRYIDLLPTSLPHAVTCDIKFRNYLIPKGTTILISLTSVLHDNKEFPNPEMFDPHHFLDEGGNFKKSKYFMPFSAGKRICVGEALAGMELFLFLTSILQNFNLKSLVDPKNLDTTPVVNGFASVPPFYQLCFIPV

Legend:
human CYP2C9 = human CYP2C9 (Homo sapiens (Human), UniProt P11712); details: read-out: Biological Test Example 9 CYP2C9 IC50; Invitrogen kit, OOMR fluorogenic substrate
[1] = target: human recombinant cytochrome P450 2C9 (Homo sapiens (Human), UniProt P11712)

| SMILES | IC50 (human CYP2C9) [µM] | IC50 [1] [µM] |
| --- | --- | --- |
| C[C@@H](c1ccc(-c2ccn(C(F)F)c(=O)c2)cc1)N1CC[C@](CC(C)(C)O)(c2ccccc2)OC1=O | 3.7 | 5.1 |
| C[C@@H](c1ccc(-c2ccc(=O)n(C)c2)cc1)N1CC[C@](CCCO)(c2ccccc2)OC1=O [Example 30, (R)-6-(3-hydroxypropyl)-3-((S)-1-(4-(1-methyl-6-oxo-1,6-dihydropyridin-3-yl)phenyl)ethyl)-6-phenyl-1,3-oxazinan-2-one] | – | > 50 |
| CC(C)n1cc(-c2ccc([C@H](C)N3CC[C@](CC(C)(C)O)(c4ccccc4)OC3=O)cc2)ccc1=O [Example 59, (S)-6-(2-hydroxy-2-methylpropyl)-3-((S)-1-(4-(1-isopropyl-6-oxo-1,6-dihydropyridin-3-yl)phenyl)ethyl)-6-phenyl-1,3-oxazinan-2-one] | – | > 50 |
